According to patent US20240209092A1, “COMBINATION THERAPIES FOR TREATING CANCER” (ADAGENE INC., priority 2021, published 2024):

Tests used:
[1] = mouse, in vivo
rat CTLA4 = biological target: T1, rat CTLA4 (Rattus norvegicus, UniProt Q62859); experiment: ELISA binding to recombinant rat CTLA4; conditions: masked antibody
T1 construct: recombinant CTLA4 proteins (extracellular domain) of human, cynomolgus monkey, mouse or rat origin
T1 sequence (Q62859 36-161): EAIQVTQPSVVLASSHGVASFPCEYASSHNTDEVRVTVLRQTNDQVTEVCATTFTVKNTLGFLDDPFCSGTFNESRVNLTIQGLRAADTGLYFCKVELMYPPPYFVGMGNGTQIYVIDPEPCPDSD

[2] = Single dose pharmacokinetics in cynomolgus monkeys; assay type: in vivo; conditions: single dose 10 mg/kg
mouse CTLA4 = biological target: T2, mouse CTLA4 (Mus musculus, UniProt P09793); experiment: ELISA binding to recombinant mouse CTLA4; conditions: masked antibody
T2 construct: recombinant CTLA4 proteins (extracellular domain) of human, cynomolgus monkey, mouse or rat origin

[3] = tested on: 4T1 murine breast cancer cells; experiment: 4T1 cancer model, TY22404 with ADG106; assay type: in vivo, mice; conditions: Day 33; 5 mg/kg TY22404 and/or ADG106 i.p. biweekly, four doses
[4] = tested on: CT26 murine colon cancer cells; experiment: CT26 murine colon cancer model, monotherapy; assay type: in vivo, BALB/c mice; conditions: 5 mg/kg i.p. twice a week, six doses; mono therapy
[5] = tested on: H22 murine liver cancer cells; experiment: H22 murine liver cancer model, monotherapy; assay type: in vivo, BALB/c mice; conditions: 5 mg/kg i.p. twice a week, six doses; mono therapy
[6] = Single dose pharmacokinetics in mice; assay type: in vivo; conditions: single dose 10 mg/kg
monkey CTLA4 = experiment: ELISA binding to recombinant cynomolgus monkey CTLA4; conditions: masked antibody
[7] = Toxicology in nonobese diabetic (NOD) mouse model; assay type: in vivo; conditions: six treatments at 50 mg/kg
[8] = tested on: Lewis murine lung tumor cells; experiment: Lewis lung cancer model, combination with anti-PD-1; assay type: in vivo, mice; conditions: 14 days after start of dosing; TY21580 or TY22404 2 mg/kg, FC1225 10 mg/kg, i.p. biweekly, four doses
[9] = Phase 1 biomarker analysis, serum cytokines (MSD V-Plex); assay type: in vivo, human
[10] = Phase 1 dose escalation study, safety; assay type: in vivo, human
human CTLA4 [11] = experiment: Promega cell-based CTLA4 blockade bioassay (CD28 signaling activation); conditions: Jurkat CTLA4 effector cells co-cultured with aAPC/Raji cells
[12] = Phase 1 biomarker analysis, peripheral immune cell profiling (TBNK FACS panel); assay type: in vivo, human; conditions: some patients
[13] = tested on: MC38 murine colon tumor cells; experiment: MC38 cancer model, TY22404 with ADG106; assay type: in vivo, mice; conditions: Day 27 post tumor cell inoculation; 5 mg/kg each, i.p. biweekly four doses
Treg cells [14] = experiment: Treg depletion in CT26 murine colon cancer model; assay type: in vivo, BALB/c mice
Treg cells [15] = experiment: Dose dependent Treg depletion in CT26 murine colon cancer model; assay type: in vivo, BALB/c mice
human CTLA4 [16] = experiment: ELISA binding to recombinant human CTLA4; conditions: masked antibody
[17] = 4-week GLP repeat-dose toxicology study in cynomolgus monkeys; assay type: in vivo
advanced solid tumors = experiment: Phase 1 dose escalation study, tumor response case studies; assay type: in vivo, human
[18] = tested on: 293F overexpressing human CTLA4; experiment: ADCC reporter gene assay; assay type: cell-based; conditions: 293F-CTLA4 target cells, Jurkat-NFAT-CD16 effector cells
[19] = 5 mg/kg i.p. Day 9 and Day 12, analysis Day 14
[20] = ovarian cancer patient, 1 mpk, assessment after every two cycles

B1: TY22404: activatable anti-CTLA4 fully human IgG1 antibody prodrug (SAFEbody); heavy chain SEQ ID NO:320, masked light chain SEQ ID NO:322 (antibody)
heavy: EVQLVESGGGLVQPGGSLRLSCAASGYSISSGYHWSWIRQAPGKGLEWLARIDWDDDKYYSTSLKSRLTISRDNSKNTLYLQLNSLRAEDTAVYYCARSYVYFDYWGQGTLVTVSSASTKGPSVFPLAPSSKSTSGGTAALGCLVKDYFPEPVTVSWNSGALTSGVHTFPAVLQSSGLYSLSSVVTVPSSSLGTQTYICNVNHKPSNTKVDKKV[gap - human IgG1 Fc]
light: EVGSYPNPSSDCVPYYYACAYSGRSAGGGGTPLGLAGSGGSDIQLTQSPSSLSASVGDRVTITCRASQSVRGRFLAWYQQKPGKAPKLLIYDASNRATGIPSRFSGSGSGTDFTLTISSLQPEDFATYYCQQSSSWPPTFGQGTKVEIKRTVAAPSVFIFPPSDEQLKSGTASVVCLLNNFYPREAKVQWKVDNALQSGNSQESVTEQDSKDSTYSLSSTLTLSKADYEKHKVYACEVTHQGLSSPVTKSFNRGEC
- mice with cleaved form detected in tumor [1]: 2/3
- binding to recombinant CTLA4 protein, in words (rat CTLA4): quite low affinities
- half-life compared with TY21580 [2]: extended half-life
- systemic exposure compared with TY21580 [2]: higher systemic exposure
- binding to recombinant CTLA4 protein, in words (mouse CTLA4): quite low affinities
- TGI vs vehicle control [3]: 49%
- anti-tumor efficacy (tumor volume) [4]: very strong anti-tumor efficacy
- anti-tumor efficacy (tumor volume) [5]: very strong anti-tumor efficacy
- half-life compared with TY21580 [6]: extended half-life
- systemic exposure compared with TY21580 [6]: higher systemic exposure
- binding to recombinant CTLA4 protein, in words (monkey CTLA4): quite low affinities
- abnormal findings attributable to TY22404 [7]: No abnormal findings
- survival [7]: all mice survived
- Tumor growth inhibition (TGI) relative to isotype control [8]: 18%
- TNF-α abundance in serum relative to base level ([9]; patient 6105-004, 1 mg/kg, during treatment): dramatic increase
- abundance of IFN-γ in serum relative to base level ([9]; patient 6105-005, 3 mg/kg, C1D8 to C2D1): increased significantly
- levels of IFN-γ and/or TNF-α overall ([9]; some patients): transient increased levels
- tolerability ([10]; 16 patients, 0.1, 0.3, 1, 3 and 10 mg/kg, as of Nov. 30, 2021): well tolerated
- number of treatment-related ≥Grade 3 AE (Grade 3 fatigue) ([10]; 16 patients, 5 dose escalation cohorts): 1
- dose limiting toxicity (DLT) ([10]; up to 10 mg/kg Q3W): No DLT
- CTLA4 blockade mediated reporter (luminescent) signaling (human CTLA4 [11]): can't induce the downstream luminescent cell signaling
- absolute counts of CD4+, CD8+ T and NK cells relative to base level [12]: transient increased
- Tumor growth inhibition (TGI) relative to isotype control [13]: 77%
- CTLA4 expression levels on Treg cells in TILs (Treg cells [14]; 5 mg/kg i.p.): significantly decreased
- CTLA4 expression levels on peripheral Treg cells (PBMC) (Treg cells [14]; 5 mg/kg i.p.): slightly upregulated
- CTLA4 expression levels on peripheral Treg cells (spleen) (Treg cells [14]; 5 mg/kg i.p.): not changed
- percentage of Tregs in CD4+ T cells in TILs vs isotype Ctrl (Treg cells [14]; [19]): significantly reduced
- percentage of Tregs in CD4+ T cells in peripheral lymphocytes in blood and spleen (Treg cells [14]; [19]): did not influence
- CTLA-4 expression levels on peripheral (spleen) Treg cells (Treg cells [15]; 5, 1 and 0.2 mg/kg i.p.): not changed
- percentage of Tregs in CD4 T cells in spleen (Treg cells [15]; 5, 1 and 0.2 mg/kg i.p.): did not reduce
- percentage of Tregs in CD4+ T cells in TILs vs isotype Ctrl (Treg cells [15]; 5, 1 and 0.2 mg/kg i.p. Day 9 and Day 12, analysis Day 14, dose dependent): significantly reduced
- CTLA-4 expression levels on Treg cells in TILs (Treg cells [15]; 5, 1 and 0.2 mg/kg i.p., dose dependent): significantly decreased
- binding to recombinant CTLA4 protein, in words (human CTLA4 [16]): quite low affinities
- adverse, but reversible, microscopic findings ([17]; 200 mg/kg, both sexes, multiple organs and tissues): minimal to moderate mixed perivascular infiltrates
- highest non-severely toxic dose (HNSTD) ([17]; cynomolgus monkeys): 200 mg/kg/dose
- tolerability ([17]; intravenous infusion 5, 30 and 200 mg/kg/dose once weekly for five doses, 28-day recovery): well tolerated
- tumor shrinkage (advanced solid tumors; UV melanoma patient who failed ipilimumab plus nivolumab, after two cycles): −24%
- change of CA125, first value (advanced solid tumors; ovarian cancer patient, 1 mpk): −18%
- change of CA125, second value (advanced solid tumors; ovarian cancer patient, 1 mpk): −67%
- change of CA125, third value (advanced solid tumors; ovarian cancer patient, 1 mpk): −77%
- change of targeted tumor lesions, first value (advanced solid tumors; [20]): −13%
- change of targeted tumor lesions, second value (advanced solid tumors; [20]): −19%
- change of targeted tumor lesions, third value (advanced solid tumors; [20]): −22%
- ADCC reporter gene activity [18]: no ADCC reporter gene activity
